Measurements: ChEMBL document CHEMBL1142492 (J Med Chem, 2008)

Amino acid sequences for entries named in this document (tags omitted). A change or cut given only in a name is not applied to a line headed by its entry.
UniProt P31749: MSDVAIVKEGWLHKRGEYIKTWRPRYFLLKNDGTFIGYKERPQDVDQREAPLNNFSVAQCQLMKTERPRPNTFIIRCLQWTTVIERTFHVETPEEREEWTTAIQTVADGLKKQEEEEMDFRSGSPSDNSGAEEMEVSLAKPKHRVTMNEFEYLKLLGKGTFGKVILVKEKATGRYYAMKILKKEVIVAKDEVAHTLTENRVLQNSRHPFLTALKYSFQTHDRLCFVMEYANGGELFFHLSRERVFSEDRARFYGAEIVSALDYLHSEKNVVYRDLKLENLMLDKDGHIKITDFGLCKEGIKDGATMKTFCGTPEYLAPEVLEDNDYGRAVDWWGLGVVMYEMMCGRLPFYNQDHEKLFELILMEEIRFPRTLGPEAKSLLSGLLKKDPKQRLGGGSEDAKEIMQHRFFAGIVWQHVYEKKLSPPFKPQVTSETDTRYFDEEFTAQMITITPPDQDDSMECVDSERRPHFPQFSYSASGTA
UniProt O75116: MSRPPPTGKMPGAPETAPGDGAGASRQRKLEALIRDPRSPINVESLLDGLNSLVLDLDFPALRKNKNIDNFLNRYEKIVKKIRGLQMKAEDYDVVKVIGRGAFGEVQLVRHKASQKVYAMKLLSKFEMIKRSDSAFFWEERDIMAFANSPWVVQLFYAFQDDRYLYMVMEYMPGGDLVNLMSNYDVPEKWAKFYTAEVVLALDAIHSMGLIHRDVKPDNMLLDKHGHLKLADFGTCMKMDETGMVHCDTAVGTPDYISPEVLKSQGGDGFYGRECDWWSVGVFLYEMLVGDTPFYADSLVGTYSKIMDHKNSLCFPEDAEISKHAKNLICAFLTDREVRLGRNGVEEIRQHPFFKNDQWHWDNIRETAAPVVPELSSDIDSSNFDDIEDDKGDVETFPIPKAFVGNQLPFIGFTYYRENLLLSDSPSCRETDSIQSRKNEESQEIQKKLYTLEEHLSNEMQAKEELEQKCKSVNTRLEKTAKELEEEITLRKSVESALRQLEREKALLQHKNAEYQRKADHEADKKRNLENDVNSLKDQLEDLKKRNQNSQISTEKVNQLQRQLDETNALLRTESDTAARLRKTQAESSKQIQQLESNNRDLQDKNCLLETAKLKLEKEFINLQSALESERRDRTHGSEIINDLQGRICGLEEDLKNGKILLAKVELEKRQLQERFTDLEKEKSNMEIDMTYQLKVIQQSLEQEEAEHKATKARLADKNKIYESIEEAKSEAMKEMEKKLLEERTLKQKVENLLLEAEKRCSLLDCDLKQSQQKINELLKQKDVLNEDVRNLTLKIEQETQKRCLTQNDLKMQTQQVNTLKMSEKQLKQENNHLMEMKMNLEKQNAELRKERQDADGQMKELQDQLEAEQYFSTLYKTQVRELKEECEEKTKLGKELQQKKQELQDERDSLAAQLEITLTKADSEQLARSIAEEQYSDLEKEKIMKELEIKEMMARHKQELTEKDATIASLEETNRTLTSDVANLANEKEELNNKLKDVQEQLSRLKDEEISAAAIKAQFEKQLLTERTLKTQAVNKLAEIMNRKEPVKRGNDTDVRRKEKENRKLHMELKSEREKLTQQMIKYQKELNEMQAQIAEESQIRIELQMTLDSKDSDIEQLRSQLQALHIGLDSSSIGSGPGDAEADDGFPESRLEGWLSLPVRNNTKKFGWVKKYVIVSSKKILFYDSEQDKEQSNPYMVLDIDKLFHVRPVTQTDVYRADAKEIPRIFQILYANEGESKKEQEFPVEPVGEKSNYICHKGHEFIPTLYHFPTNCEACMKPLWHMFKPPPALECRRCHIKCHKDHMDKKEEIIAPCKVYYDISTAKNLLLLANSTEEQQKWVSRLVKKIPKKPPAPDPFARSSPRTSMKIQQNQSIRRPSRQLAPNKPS

Tests used:
[1] = biological target: RAC-alpha serine/threonine-protein kinase (Homo sapiens, UniProt P31749); assay: Inhibition of AKT1 after 55 mins
[2] = biological target: Rho-associated protein kinase 2 (Homo sapiens, UniProt O75116); assay: Inhibition of ROCK2

pIC50 [1]: 5.19
pIC50 [2]: 7.34
Structure (SMILES): O=C(Nc1ccc(-c2ccncc2)cc1)C1COc2ccccc2O1 (configuration not stated)

pIC50: −log10 of the molar value.
